Results on 101 compounds are retold here after PubChem BioAssay AID2796 (The Scripps Research Institute Molecular Screening Center, 2010).

Amino acid sequences for entries named in this document (tags omitted). A change or cut given only in a name is not applied to a line headed by its entry.
UniProt P35869: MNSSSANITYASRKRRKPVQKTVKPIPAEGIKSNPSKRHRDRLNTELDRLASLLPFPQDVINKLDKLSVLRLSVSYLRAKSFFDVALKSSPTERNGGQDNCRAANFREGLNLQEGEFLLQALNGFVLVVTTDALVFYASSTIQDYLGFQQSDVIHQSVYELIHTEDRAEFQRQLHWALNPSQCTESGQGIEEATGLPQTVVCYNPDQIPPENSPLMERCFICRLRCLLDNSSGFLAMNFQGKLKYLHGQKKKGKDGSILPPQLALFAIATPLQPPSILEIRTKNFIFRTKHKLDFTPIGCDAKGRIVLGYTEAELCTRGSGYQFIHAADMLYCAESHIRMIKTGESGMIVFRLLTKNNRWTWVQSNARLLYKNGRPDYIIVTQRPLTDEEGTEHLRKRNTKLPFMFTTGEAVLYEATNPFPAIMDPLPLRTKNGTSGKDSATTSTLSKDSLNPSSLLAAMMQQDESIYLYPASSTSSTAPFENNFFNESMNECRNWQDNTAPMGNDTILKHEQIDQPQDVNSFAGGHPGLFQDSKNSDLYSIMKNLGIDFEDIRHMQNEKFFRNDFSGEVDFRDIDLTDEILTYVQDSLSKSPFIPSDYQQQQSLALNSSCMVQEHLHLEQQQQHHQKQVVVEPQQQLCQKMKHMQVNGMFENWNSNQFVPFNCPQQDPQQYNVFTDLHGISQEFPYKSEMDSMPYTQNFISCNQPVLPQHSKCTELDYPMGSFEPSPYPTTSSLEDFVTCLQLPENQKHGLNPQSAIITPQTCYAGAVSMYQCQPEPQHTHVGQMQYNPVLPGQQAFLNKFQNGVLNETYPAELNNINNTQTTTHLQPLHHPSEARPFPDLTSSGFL

Only a part is listed here, and it is no random draw. The source made the active and inactive calls. Cut-off read from the data, not from the text of the source: active = activation above about 47%; inactive = the rest.

The target of the test is Aryl hydrocarbon receptor (Homo sapiens) (UniProt P35869). Briefly: AHR activators, primary screen, cell-based, luminescence, luciferase reporter, human (AID 2796).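 Note: 0% = vehicle wells and 100% = reference agonist.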 The note with it: AHR-responsive luciferase reporter cells, at 5 µM, active compounds read high.
Take `N#CCCN(C(=O)COC(=O)C(O)(c1ccccc1)c1ccccc1)c1ccc(F)cc1`: the activation is inactive: -3.14%.

Take `CCOP1(=S)c2c(C)nn(CCC#N)c2N=C(c2ccc(F)cc2)N1C` (stereo unspecified): the activation was inactive: -0.36%. Consider `CN(C(=O)Cc1ccccc1)[C@@H]1CC[C@]2(CCCO2)C[C@H]1N1CCCC1`, for which the activation is inactive: 0.01%.

Take `CN(C)C(=O)c1cc([N+](=O)[O-])cc2c1-c1c(cc([N+](=O)[O-])cc1[N+](=O)[O-])C2=O`: the activation was inactive: 2.34%.

On to `O=[N+]([O-])c1ccc2c(c1)nnn2O`, for which the activation is inactive: 0.69%.

On to `CN(C(=O)Cc1ccc(Cl)c(Cl)c1)[C@H]1CC[C@@]2(CCCO2)C[C@@H]1N1CCCC1`, for which the activation is inactive: -1.19%.

Regarding `NC(=O)Nc1ccc([As](=O)(O)O)cc1`, the activation is inactive: 0.51%. As for `Nc1ccccc1[As](=O)(O)c1ccccc1`, the activation was inactive: -0.65%. The result for `O=C(O)COc1ccc([As](=O)(O)O)cc1[N+](=O)[O-]` reads inactive: 0.22%.

As to `CCOP1(=S)c2c(C)nn(CCC#N)c2N=C(c2ccccc2F)N1C` (stereo unspecified), the activation was inactive: 0.21%.

As to `O=P(Nc1nccs1)(c1ccccc1)c1nc2ccccc2s1` (stereo unspecified), the activation was inactive: 8.55%. Regarding `O=P(Nc1nccs1)(Oc1ccccc1)Oc1ccccc1`, the activation was inactive: -0.56%. The result for `CS(=O)(=O)c1cc([N+](=O)[O-])c2no[n+]([O-])c2c1` reads inactive: 0.54%.

Turning to `COc1cc(C2NCCC3(OCCO3)C2(C)C)cc(OC)c1OC` (stereo unspecified), the activation is inactive: 2.31%. Regarding `CCOP(=O)(Nc1cccc2ccccc12)OCC`, the activation is inactive: 4.11%.

On to `Nc1cccc2c([As](=O)(O)O)cccc12`, for which the activation is inactive: -1.25%. With `Cc1ccc(NCCc2c([N+](=O)[O-])cc([N+](=O)[O-])cc2[N+](=O)[O-])cc1`, the activation is inactive: 3.29%.

As to `CCCOP(=S)(Nc1nc(N)cc(=O)[nH]1)OCCC`, the activation was inactive: -0.46%. The result for `O=[As](O)(c1cccc(O)c1)c1cccc(O)c1` reads inactive: -2.67%; that for `Cc1cccc(OCC(=O)OC2CN3CCC2CC3)c1` (stereo unspecified), inactive: 0.93%.

Regarding `O=C(OC1CN2CCC1CC2)c1ccc(Cl)cc1` (stereo unspecified), the activation is inactive: -0.55%.

As for `COc1cc(C(=O)NCC2(N3CCOCC3)CCCCC2)cc(Cl)c1OC(C)C`, the activation is inactive: 11%.

In the case of `O=[As](O)(O)c1cccnc1`, the activation is inactive: -0.61%. The result for `CS(=O)(=O)c1ccc(Cl)c(NC(=O)COC(=O)C(O)(c2ccccc2)c2ccccc2)c1` reads inactive: -1.08%; that for `CC(C)/C=N\N=C(\N)N[N+](=O)[O-]`, inactive: 6.2%.

For `CN(C(=O)Cc1ccc(Cl)c(Cl)c1)[C@@H]1CCCC[C@H]1N1CCCC1`, the activation is inactive: -3.31%. With `O=[As](O)(c1ccccc1Br)c1ccccc1Br` the figure was inactive: 0.41%; with `CC1(CBr)Cn2c(nc3ccccc3c2=O)S1` (stereo unspecified), inactive: 0.56%; with `COc1ccccc1CNC(=O)COC(=O)C(O)(c1ccccc1)c1ccccc1`, inactive: -0.72%. In the case of `Clc1n[nH]nc1-c1nn[nH][15n]1`, the activation was inactive: 0.55%.

Turning to `CC(C)(C)C(=O)NC(Sc1ncccn1)C(Cl)(Cl)Cl` (stereo unspecified), the activation is inactive: -0.84%. Consider `O=P1(Nc2ccccn2)COc2ccccc2OC1`, for which the activation is inactive: -3.65%. In the case of `CCC1=CC2Cc3nc4ccc(Cl)cc4c(N)c3C(C1)C2` (stereo unspecified), the activation was inactive: 6.57%. With `CCOP(=O)(NC(=NC(C)c1ccccc1)NC(C)c1ccccc1)OCC` (stereo unspecified) the figure was inactive: -1.25%; with `CN(CCCl)Cc1cc(Cl)c(NC2=NCCN2)c(Cl)c1`, inactive: -3.42%. The result for `CCOP(=O)(Nc1ccc(C)cn1)OCC` reads inactive: 4.2%. As for `Nc1cccc([As](=O)(O)c2ccccc2)c1`, the activation is inactive: 1.04%. As to `O=P1(Nc2ccc(Br)cn2)COc2ccccc2OC1`, the activation was inactive: 0.31%. In the case of `NS(=O)(=O)c1cccc(NC(=O)COC(=O)C(O)(c2ccccc2)c2ccccc2)c1`, the activation is inactive: 8.13%.

As to `O=[As](O)(c1cccs1)c1cccs1`, the activation was inactive: 3.69%. On to `Cc1ccc(OCC(=O)OC2CN3CCC2CC3)cc1` (stereo unspecified), for which the activation was inactive: 1.68%. Turning to `O=P1(Nc2ncccn2)COc2ccccc2OC1`, the activation was inactive: 1.41%. Consider `CN(C)C1(CNC(=O)c2ccc(S(C)(=O)=O)cc2)CCCCC1`, for which the activation was inactive: 1.07%. For the compound `O=C(/C=C/c1ccccc1)OC1CN2CCC1CC2` (stereo unspecified), the activation was inactive: 2.88%. Take `Cc1nn(-c2ccccc2)c2c1P(=O)(N1CCOCC1)N(C)C(c1ccccc1)=N2` (stereo unspecified): the activation was inactive: -0.21%. For `CC1CCC(C(C)C)C(OP(=O)(Nc2ccccn2)c2ccccc2)C1` (stereo unspecified), the activation was inactive: 1.98%. As to `Cc1ccc(C(=O)OC2CN3CCC2CC3)cc1` (stereo unspecified), the activation was inactive: -0.06%. On to `O=P(Nc1ccccn1)(c1cccc2ccccc12)c1cccc2ccccc12`, for which the activation is inactive: -1.25%. As for `Cc1cc(SC(NC=O)C(Cl)(Cl)Cl)ncn1` (stereo unspecified), the activation was inactive: 3.07%. For the compound `CCOC(=O)Nc1cccc([As](=O)(O)O)c1`, the activation is inactive: -1.76%. With `Cc1cc(SC(NC(=O)c2ccccc2)C(Cl)(Cl)Cl)nc(C(C)C)n1` (stereo unspecified), the activation was inactive: 3.95%. On to `CCOC(=O)Nc1ccc([As](=O)(O)O)c(O)c1`, for which the activation is inactive: -1.39%. On to `CCC(C)N(CC(C)C)C(=S)SC(NC(C)=O)C(Cl)(Cl)Cl` (stereo unspecified), for which the activation is inactive: 1.35%. With `O=C(OC1CN2CCC1CC2)c1cccc([N+](=O)[O-])c1` (stereo unspecified) the figure was inactive: -0.18%. Consider `CCOC(=O)c1ccc(NC(=O)C(C)(CCl)SC)cc1` (stereo unspecified), for which the activation was inactive: 3.05%. Turning to `O=C(COc1ccccc1)OC1CN2CCC1CC2` (stereo unspecified), the activation was inactive: 0.19%. As for `O=C(Nc1ccncc1[N+](=O)[O-])c1ccc([N+](=O)[O-])cc1[N+](=O)[O-]`, the activation is inactive: 1.78%. `COP1(=S)c2c(C)nn(CCC#N)c2N=C(c2ccc(F)cc2)N1C` (stereo unspecified): the activation is inactive: 0.99%. In the case of `COc1ccc(N/C(=N/P(=O)(N2CCOCC2)N2CCOCC2)N2CCOCC2)cc1`, the activation was inactive: 0.83%. As to `COc1ccc2nc(NP(=O)(c3ccccc3)c3ccccc3)sc2c1`, the activation was inactive: 8.55%.

For the compound `COc1cc(I)ccc1[As](=O)(O)O`, the activation was inactive: -0.25%.

Consider `Cc1c2c(nc3ccccc13)SC(C(Cl)Cl)C2` (stereo unspecified), for which the activation was inactive: 5.51%. For the compound `O=C(OC1CN2CCC1CC2)C12CC3CC(CC(C3)C1)C2` (stereo unspecified), the activation was inactive: 5.86%. For the compound `Cc1cc(=O)[nH]c(N[N+](=O)[O-])n1`, the activation was inactive: 2.32%. With `CCN(CC)C(=S)SC(NC=O)C(Cl)(Cl)Cl` (stereo unspecified), the activation was inactive: -1.01%. On to `CC(C)NC(=O)NP(=O)(Oc1ccccc1)Oc1ccccc1`, for which the activation was inactive: 3.19%. In the case of `O=[N+]([O-])c1cc([N+](=O)[O-])c(-c2ccn[nH]2)s1`, the activation was inactive: 44.4%. For `ClCCSc1nnc(-c2cccnc2)o1`, the activation was inactive: 1.41%.

`CC(C)c1ccc(OP(=O)(Nc2ccccn2)Oc2ccccc2F)cc1` (stereo unspecified): the activation is inactive: 2.25%. Turning to `Cc1ccc(OP(=O)(Nc2ccc([N+](=O)[O-])cn2)Oc2ccc(C)cc2)cc1`, the activation is inactive: -0.53%. On to `Cc1ccc2nc3c(c(C)c2c1)CC(C(Cl)Cl)S3` (stereo unspecified), for which the activation is inactive: 12.1%. Turning to `O=[As](O)(c1ccc(O)cc1)c1ccccc1O`, the activation was inactive: 1.38%. Turning to `C[As](=O)(O)c1cccc(C(=O)O)c1`, the activation was inactive: 1.61%. As for `COc1cc(C(=O)NCC2(N3CCOCC3)CCCCC2)ccc1OCC(C)C`, the activation is inactive: 2.87%.

On to `CCN(N=Nc1nonc1N)c1nonc1N`, for which the activation is inactive: 1.39%.

Regarding `O=[N+]([O-])c1cc([N+](=O)[O-])c(CCN2CCOCC2)c([N+](=O)[O-])c1`, the activation is inactive: 24.9%. The result for `CCOP(=O)(Nc1ccccc1)OCC` reads inactive: -1.21%; that for `Cc1cc(SC(NC(=O)c2ccc(F)cc2)C(Cl)(Cl)Cl)ncn1` (stereo unspecified), inactive: -2.27%; that for `Cc1ccc(NP(=O)(Oc2ccccc2F)Oc2ccccc2F)nc1`, inactive: -1.54%. On to `CN(C(=O)Cc1ccc(Cl)c(Cl)c1)[C@H]1CCCC[C@@H]1N1CCCC1`, for which the activation was inactive: -0.75%. The result for `O=P(Nc1nc2ccc(Cl)cc2s1)(c1ccccc1)c1ccccc1` reads inactive: 6.54%; that for `O=C(O)c1ccccc1[As](=O)(O)O`, inactive: 1.96%.

With `CC(=O)Nc1ccc([As](=O)(O)O)cc1`, the activation was inactive: 3.99%. On to `Oc1ccccc1CNc1ccccn1`, for which the activation was inactive: -1.66%. Take `Cc1c2non([O-])c-2c(C)[n+](=O)[n+]1[O-]`: the activation is inactive: -0.08%. The result for `O=C(NC(Sc1ccncn1)C(Cl)(Cl)Cl)c1ccccc1` (stereo unspecified) reads inactive: 4.77%; that for `CC(C)CC(=O)NC(Sc1ccc(Cl)cc1)C(Cl)(Cl)Cl` (stereo unspecified), inactive: -1.67%. Regarding `Nc1cc(N)c2nonc2c1[N+](=O)[O-]`, the activation was inactive: 3.21%.

With `Clc1ccc(Cl)c(NC2=NCC(CBr)S2)c1` (stereo unspecified), the activation was inactive: 0.43%.

Consider `CN1CCCC(OC(=O)C(c2ccccc2)c2ccccc2)C1` (stereo unspecified), for which the activation was inactive: 0.45%. The result for `COc1ccccc1OP(=O)(Nc1ccc(C)cn1)Oc1ccccc1OC` reads inactive: 4.37%. As for `Cc1ccc(OP(=O)(Nc2nccs2)Oc2ccc(C)cc2)cc1`, the activation was inactive: -1.61%.

In the case of `CN(C(=O)Cc1ccc(Cl)c(Cl)c1)[C@H]1CCCC[C@H]1N1CCCC1`, the activation is inactive: 5.82%. As to `Cc1ccc(N/C(=N/P(=O)(N2CCOCC2)N2CCOCC2)N2CCOCC2)cc1`, the activation is inactive: 3.06%. For `NC(=O)c1cc([N+](=O)[O-])cc([N+](=O)[O-])c1N`, the activation is inactive: 4.49%. `CC1CCN(C(=O)Oc2c(Cl)cc(Cl)c3cccnc23)CC1`: the activation was inactive: 7.25%. With `CC(C)=N/N=C(\N)N[N+](=O)[O-]` the figure was inactive: 2.23%; with `CN(C)C(=O)OCCc1n(C)cc[n+]1C`, inactive: -1.66%.

With `CCN(/C(=N/P(=O)(N1CCOCC1)N1CCOCC1)N1CCOCC1)c1ccc(OC)cc1`, the activation was inactive: 0.4%.

As for `Nc1ccc([As](=O)(O)c2ccc(N)cc2)cc1`, the activation was inactive: -1.94%. For `C[N+]1=C2C=CC=CC=C2SC12C([N+](=O)[O-])=CC([N+](=O)[O-])=C[C-]2[N+](=O)[O-]` (stereo unspecified), the activation was inactive: 23.3%.
